# Experimental data published in ChEMBL document CHEMBL3639086, “Heterocyclic inhibitors of glutaminase” (2013).
# Target: T1, Glutaminase kidney isoform, mitochondrial (Homo sapiens, UniProt O94925)
# T1 sequence (O94925 whole entry): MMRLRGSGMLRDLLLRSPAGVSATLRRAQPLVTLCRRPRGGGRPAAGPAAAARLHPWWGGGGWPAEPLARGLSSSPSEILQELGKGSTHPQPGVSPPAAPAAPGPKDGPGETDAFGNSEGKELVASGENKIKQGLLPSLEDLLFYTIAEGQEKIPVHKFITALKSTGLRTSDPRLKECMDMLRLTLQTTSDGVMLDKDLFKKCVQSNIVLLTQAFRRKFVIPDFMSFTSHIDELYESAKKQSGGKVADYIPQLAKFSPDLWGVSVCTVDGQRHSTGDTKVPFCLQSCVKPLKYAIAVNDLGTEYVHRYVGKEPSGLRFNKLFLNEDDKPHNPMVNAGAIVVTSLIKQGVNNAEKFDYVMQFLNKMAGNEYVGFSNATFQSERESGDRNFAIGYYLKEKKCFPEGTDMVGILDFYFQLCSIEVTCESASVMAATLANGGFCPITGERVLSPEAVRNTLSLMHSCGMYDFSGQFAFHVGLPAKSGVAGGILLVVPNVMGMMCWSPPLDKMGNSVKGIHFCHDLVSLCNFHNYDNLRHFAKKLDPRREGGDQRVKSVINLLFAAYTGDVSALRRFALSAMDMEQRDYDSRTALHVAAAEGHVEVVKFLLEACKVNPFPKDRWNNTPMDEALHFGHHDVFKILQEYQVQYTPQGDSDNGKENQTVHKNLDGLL
smiles,measurement,value
CCOC(=O)NC(C)c1cccc(CC(=O)Nc2ccc(CCCCc3nnc(NC(=O)Cc4ccccc4)s3)nn2)c1 (stereo unspecified),IC50,10 nM
